{"source": "patent US12121540B2", "about": "“CBL inhibitors and compositions for use in adoptive cell therapy” (Nurix Therapeutics, Inc., priority 2019, dated 2024)", "key": {"CD8+ and CD4+ TIL": {"system": "CD8+ and CD4+ TIL", "assay": "CD107a and granzyme B in TIL after anti-CD3/CD28 stimulation", "type": "cell-based, human", "conditions": "expanded with IL2; anti-CD3/CD28 6 hours", "description": "To investigate whether expanded TIL are capable of responding to extracellular stimulation, TIL were stimulated with anti-CD3/CD28 for 6 hours in the presence of secretion inhibitors and anti-CD107a. […] Upon stimulation, an average of 40% of CD8^+ TIL expanded with IL2 were positive for CD107A expression, and greater than 60% of CD8^+ TIL expanded with IL2+ compound 103 were capable of producing CD107a (FIG. 27A). Upon stimulation, an average of 50% of CD4^+ TIL expanded with IL2 were positive for CD107A expression, and greater than 60% of CD4^+ TIL expanded with IL2+ compound 103 were capable of producing CD107a (FIG. 27B).\nIn the context of cytotoxicity, granzyme B (Grb), a protease secreted to mediate apoptosis, was assessed. […] From this, we conclude that Cbl inhibitor appears to expand TIL with increased cytotoxic potential."}, "[1]": {"system": "human T cells from peripheral blood mononuclear cells", "assay": "Expansion of CMV pp65 reactive T cells from peripheral blood mononuclear cells", "type": "cell-based", "description": "(§1) CMV pp65 (495-503) reactive T cells were expanded by thawing CMV seropositive donors (Conversant) and 2×10^6 cells/ml were resuspended in RPMI medium (Gibco) supplemented with 1% GlutaMax (Gibco), 1% non-essential amino acids (NEAA), penicillin/streptomycin (Gibco), 10% heat inactivated human AB serum (Corning), 1 μg/ml CMV pp65 (495-503) (Anaspec), 2 ng/mL IL-2 (R&D), and/or Cbl inhibitor (01, 1, 10 μM). PBMCs were cultured for eight days with IL-2 and/or Cbl inhibitor and replenished at day three and day five. At day eight, cells were harvested, and re-plated in low dose IL-2 (100 U/ml) and/or Cbl inhibitor at 2 million/ml in complete RPMI media for two days. At day eleven, cells were pooled and counted, and immunophenotyped at day 11 by flow cytometry by measuring expression of lineage (CD4, CD8) and differentiation (including CD45RA, CD45RO, CD95, CCR7, CD62L, TCF1, PD-1, TIM3, LAG3) markers."}, "[2]": {"system": "human tumor-infiltrating lymphocytes (TIL)", "assay": "Flow cytometry immunophenotyping of expanded TIL", "type": "cell-based", "conditions": "TIL1 population; IL-2 alone; day 28", "description": "(§2) For TIL generation, single 8 mm^3 tumor fragments were added to each well of a 24-well plate containing 2 mL RPMI medium containing 25 mM HEPES, 10% heat inactivated human AB serum, 100 U/mL penicillin, 100 μg/ml streptomycin, 2 mM L-glutamine, 10 μg/ml gentamycin and 0.25 μg/ml Fungizone (Complete Medium; CM) with either 6000 IU/mL IL-2 in the presence or absence of 0.1-10 μM of a Cbl inhibitor, or with 0.1-10 μM of the Cbl inhibitor alone. The plates were placed in a humidified 37° C. incubator with 5% CO2. Half of the medium was replaced every two days after culture initiation. As wells became confluent, the contents were mixed vigorously, split into two daughter wells, and filled to 2 mL per well with RPMI medium with either 6000 IU/mL IL-2 in the presence or absence of 0.1-10 μM of the Cbl inhibitor, or with 0.1-10 μM of the Cbl inhibitor alone. Subsequently, half the media was replaced thrice weekly, cultures were split to maintain a cell density of 1×10^6 cells/mL. […] Mitochondrial markers including, Mitotracker, Mitoprobe, and 2-NBDG may also be used to assess differentiation and/or activation of cells. The initial TIL generation step may be shortened from 28 days to between about 7-11 days with similar results.\nT lymphocytes were defined based on lineage and differentiation marker expression according to the developmental model (Restifo, Blood, 124:476-477, 2014), as shown in Table 4. […] Monocytes (CD14+), B cells (CD20+) and NK cells (CD56+) accounted for <10% of the total number of cells."}, "[3]": {"system": "human T cells from peripheral blood mononuclear cells", "assay": "Flow cytometry immunophenotyping of T cells expanded from donor PBMC", "type": "cell-based", "conditions": "IL-2 alone, day 11", "description": "as §1\nT lymphocytes were defined based on lineage and differentiation marker expression according to the developmental model (Restifo, Blood, 124:476-477, 2014), as shown in Table 4."}, "[4]": {"system": "human tumor-infiltrating lymphocytes (TIL)", "assay": "Ex vivo expansion of TIL from human tumor fragments (pre-REP)", "type": "cell-based", "conditions": "day 17", "description": "Samples of human ovarian and colon tumors were obtained from the Cooperative Human Tissue Network (CHTN, c/o Vanderbilt University Medical Center, Nashville, TN). Solid tumor specimens were carefully dissected free of surrounding fatty and necrotic areas. The tumors were sliced into 8 mm^3 (2×2×2 mm^3) fragments under sterile conditions using a scalpel and a scalpel holder.\nas §2"}, "CD4/8+ T cells": {"system": "CD4/8+ T cells", "assay": "Intracellular IFN-γ after PMA/ionomycin stimulation of expanded T cells", "type": "cell-based, human", "conditions": "IL-2 expanded T cells; PMA/ionomycin 6 h", "description": "T cell activity was determined by analysis of cytokine secretion. To investigate whether these expanded T cells are capable of responding to extracellular stimulation, T cells were stimulated with 25 ng/mL phorbol myristate acetate (PMA) and 0.5 μM ionomycin. After 90 min of stimulation, monensin, 1:50, (GolgiStop, BD Biosciences) was added. After 6 h, cells were stained for surface expression of CD4+, CD8+, CD45RA+, CD95+, CCR7+, CD62L+, and subsequently, fixed, permeabilized and stained for intracellular cytokine, IFN-γ. After 6 hr, we observed a clear increase in accumulated intracellular IFN-γ, an important effector of the anti-tumor response when T cells had been expanded with IL-2 and Cbl inhibitor."}, "[5]": {"system": "human tumor-infiltrating lymphocytes (TIL)", "assay": "Rapid Expansion Protocol (REP) of TIL", "type": "cell-based", "conditions": "day 42 (Pre-REP and REP)", "description": "Rapid Expansion Protocol (REP) used OKT3 (anti-CD3) antibody (Thermo Fisher Scientific) and IL-2 in the presence of irradiated, allogeneic feeder cells (Astarte Biologics) at a 200:1 ratio of feeder cells to responding TIL cells. PBMC, OKT3 antibody (30 ng/mL), complete medium (“CM”), AIM V media (GIBCO/BRL), and TIL effector cells were combined, mixed, and aliquoted to a 75 cm^2 tissue culture flask. Flasks were incubated upright at 37° C. in 5% CO2. IL-2 (6000 IU/mL) and/or Cbl inhibitor (0.1, 1, 10 μM) were added on day 2. On day 5, culture supernatant was removed by aspiration and media was replaced with a 1:1 mixture of CM/AIM V containing 6000 IU/mL IL-2 and/or Cbl inhibitor. On day 6, and every day thereafter, cell concentration was determined, and cells were split into additional flasks with additional medium containing 6000 CU/mL IL-2/Cbl inhibitor as needed to maintain cell densities around 1×10^6 cells/mL. About 14 days after initiation of the REP, cells were harvested and cryopreserved for future experimental analysis.\nOnly TIL that expanded during the pre-REP protocol were further expanded in the REP protocol: TIL1, TIL3, TIL4 & TIL6. The magnitude of TIL expansion during the REP varied between the tumor samples. For this reason, the total cell numbers are shown in Table 3 as a percentage of the IL-2 alone condition during the REP expansion protocol."}}}
{"substance": "IL-2: cytokine used as standard comparator for ex vivo expansion of TIL and T cells", "values": [{"measurement": "CD4+ TIL positive for CD107A expression", "setting": "CD8+ and CD4+ TIL", "value": 50, "unit": "%"}, {"measurement": "CD8+ TIL positive for CD107A expression", "setting": "CD8+ and CD4+ TIL", "value": 40, "unit": "%"}, {"measurement": "Expansion of T cells from PBMC, total cell number relative to IL-2 alone", "setting": "[1]; Donor 1, day 11", "value": 100, "unit": "%"}, {"measurement": "Expansion of T cells from PBMC, total cell number relative to IL-2 alone", "setting": "[1]; Donor 2, day 11", "value": 100, "unit": "%"}, {"measurement": "Expansion of T cells from PBMC, total cell number relative to IL-2 alone", "setting": "[1]; Donor 3, day 11", "value": 100, "unit": "%"}, {"measurement": "CD4 TCM CD62L+ CCR7+, percentage of total TIL cell number", "setting": "[2]", "value": 1.8, "unit": "%"}, {"measurement": "CD4 TEM CD62L− CCR7−, percentage of total TIL cell number", "setting": "[2]", "value": 48.9, "unit": "%"}, {"measurement": "CD8 TCM CD62L+ CCR7−, percentage of total TIL cell number", "setting": "[2]", "value": 4.2, "unit": "%"}, {"measurement": "CD8 TEM CD62L− CCR7−, percentage of total TIL cell number", "setting": "[2]", "value": 48.7, "unit": "%"}, {"measurement": "CD4 TCM, percentage of total cell number", "setting": "[3]", "value": 43.2, "unit": "%"}, {"measurement": "CD4 TEM, percentage of total cell number", "setting": "[3]", "value": 24.9, "unit": "%"}, {"measurement": "CD4 TSCM, percentage of total cell number", "setting": "[3]", "value": 16.9, "unit": "%"}, {"measurement": "CD8 TCM, percentage of total cell number", "setting": "[3]", "value": 25.4, "unit": "%"}, {"measurement": "CD8 TEM, percentage of total cell number", "setting": "[3]", "value": 11, "unit": "%"}, {"measurement": "CD8 TSCM, percentage of total cell number", "setting": "[3]", "value": 39.9, "unit": "%"}, {"measurement": "Expansion of TIL, total cell number relative to IL-2 alone", "setting": "[4]; TIL1 (ovary)", "value": 100, "unit": "%"}, {"measurement": "Expansion of TIL, total cell number relative to IL-2 alone", "setting": "[4]; TIL2 (ovary)", "value": 100, "unit": "%"}, {"measurement": "Expansion of TIL, total cell number relative to IL-2 alone", "setting": "[4]; TIL3 (ovary)", "value": 100, "unit": "%"}, {"measurement": "Expansion of TIL, total cell number relative to IL-2 alone", "setting": "[4]; TIL4 (colon)", "value": 100, "unit": "%"}, {"measurement": "Expansion of TIL, total cell number relative to IL-2 alone", "setting": "[4]; TIL5 (ovary)", "value": 100, "unit": "%"}, {"measurement": "Expansion of TIL, total cell number relative to IL-2 alone", "setting": "[4]; TIL6 (ovary)", "value": 100, "unit": "%"}, {"measurement": "CD4/8+ T cells positive for IFN-γ expression", "setting": "CD4/8+ T cells", "value": "approximately 50%"}, {"measurement": "Expansion of TIL (REP), total cell number relative to IL-2 alone", "setting": "[5]; TIL1 (ovary)", "value": 100, "unit": "%"}, {"measurement": "Expansion of TIL (REP), total cell number relative to IL-2 alone", "setting": "[5]; TIL3 (ovary)", "value": 100, "unit": "%"}, {"measurement": "Expansion of TIL (REP), total cell number relative to IL-2 alone", "setting": "[5]; TIL4 (colon)", "value": 100, "unit": "%"}, {"measurement": "Expansion of TIL (REP), total cell number relative to IL-2 alone", "setting": "[5]; TIL6 (ovary)", "value": 100, "unit": "%"}]}
